Legend:
[1] = target: Kappa-type opioid receptor (Cavia porcellus, UniProt P41144); test: Binding affinity towards Opioid receptor kappa 1 by displacing the radioligand [3H]U-69593 from guinea pig brain membrane
Mu-type opioid receptor = Mu-type opioid receptor (Cavia porcellus, UniProt P97266); test: Binding affinity towards Opioid receptor mu 1 by displacing the radioligand [3H]DAMGO from guinea pig brain membrane

The chains behind the UniProt entries cited, without tags or fusion partners. Where a name states a change or a piece, a line headed by the entry shows the natural chain unless it says otherwise.
UniProt P41144: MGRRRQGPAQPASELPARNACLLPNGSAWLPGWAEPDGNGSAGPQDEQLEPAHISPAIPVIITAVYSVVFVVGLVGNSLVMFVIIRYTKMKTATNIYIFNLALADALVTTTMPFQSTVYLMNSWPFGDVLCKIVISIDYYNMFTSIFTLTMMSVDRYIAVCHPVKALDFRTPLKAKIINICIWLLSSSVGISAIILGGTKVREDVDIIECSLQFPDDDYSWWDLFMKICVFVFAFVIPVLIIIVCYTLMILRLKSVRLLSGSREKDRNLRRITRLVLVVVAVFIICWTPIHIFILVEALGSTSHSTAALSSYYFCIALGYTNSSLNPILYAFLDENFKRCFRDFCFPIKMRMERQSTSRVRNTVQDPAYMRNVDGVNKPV
UniProt P97266, whole entry, looked up: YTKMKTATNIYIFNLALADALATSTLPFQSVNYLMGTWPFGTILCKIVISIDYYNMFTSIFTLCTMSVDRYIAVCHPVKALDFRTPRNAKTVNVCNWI

CN(C(=O)Cc1ccc(Cl)c(Cl)c1)C1CCCCC1N1CCCC1 (configuration not stated)
Ki [1]: 0.36 nM
Ki (Mu-type opioid receptor): 220 nM
